# Values of other authors, collected in patent US20040197397A1, “Drug delivery system for treatment of urinary incontinence” (Watson Pharmaceuticals, Inc., priority 2002, published 2004).
# Where a name gives a salt, the structure may show the parent alone.
# Details: oral
smiles,measurement,value
CCN(CC)CC#CCOC(=O)C(O)(c1ccccc1)C1CCCCC1 (centres unmarked) [Oxybutynin hydrochloride],absorption through the intestinal tract,good
same,hepatic metabolism,higher hepatic metabolism
